Antibody variant affinities, Ab-14 light chain, assay 1

Target peptide (SARS-CoV-2 spike, HR2 region): PDVDLGDISGINAS

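Phage display of a naive human antibody library on the peptide gave the parent. In library AAYL50, one, two or three CDR residues were substituted; doubles and triples were drawn at random. In AlphaSeq, yeast of one mating type display the scFv and yeast of the other type display the target. Pairs that bind mate more often; barcode pairs of the diploids are counted by sequencing. Each replicate has its own calibration line, from reference interactions of the BCL2 family. Each pool was mated in three replicate cultures.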

Parent scFv Ab-14: VH joined to VL by a 15-residue (Gly4Ser)3 linker. Changes lie in the light chain CDRs alone.
VH: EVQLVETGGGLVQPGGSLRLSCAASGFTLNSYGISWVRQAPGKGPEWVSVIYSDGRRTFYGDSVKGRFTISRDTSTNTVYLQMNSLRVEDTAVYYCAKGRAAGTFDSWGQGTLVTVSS
VL: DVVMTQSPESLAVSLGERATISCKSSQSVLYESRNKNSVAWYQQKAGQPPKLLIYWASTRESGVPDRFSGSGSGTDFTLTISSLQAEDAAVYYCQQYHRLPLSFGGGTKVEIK

Each variant's VL is given in full. Scale: log10 of Kd in nM, estimated from mating counts; low values are strong binders. "n.d." marks a missing value. The strain was present, yet no cells mated with the target were sequenced in that replicate, which points to weak or no binding. For reference, the parent read 0.65 as the reference entry and 1.68 as a member of this library.

VL	log10 Kd (nM) by replicate	control signals
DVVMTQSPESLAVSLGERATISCKSSQSVLYESRNKQSVAWYQQKAGQPPKLLIYWASYRESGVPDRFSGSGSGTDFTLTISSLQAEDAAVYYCQQYHRLPLSFGGGTKVEIK	1.62 1.50 1.83	0/9
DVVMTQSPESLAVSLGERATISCKSSQSVLYESRNKNSVAWYQQKAGQPPKLLIYWLSTRETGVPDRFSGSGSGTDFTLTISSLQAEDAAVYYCQQYHFLPLSFGGGTKVEIK	n.d. n.d. n.d.	0/9
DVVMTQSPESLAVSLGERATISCKSSQSGLYESRNKNSVAWYQQKAGQPPKLLIYWASTRESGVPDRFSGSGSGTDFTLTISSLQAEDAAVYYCQQQHPLPLSFGGGTKVEIK	n.d. n.d. n.d.	2/9 (3.96)
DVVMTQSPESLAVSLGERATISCKSSQIVLYELRNKNSVAWYQQKAGQPPKLLIYWASTRESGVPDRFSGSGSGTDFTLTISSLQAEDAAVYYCQQYHRLPTSFGGGTKVEIK	n.d. n.d. n.d.	1/9 (4.29)
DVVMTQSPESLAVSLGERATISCKSSQSVLYESRNKLSVAWYQQKAGQPPKLLIYWASTKESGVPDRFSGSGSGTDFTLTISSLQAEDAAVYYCQQCHRLPLSFGGGTKVEIK	2.61 2.74 2.98	1/9 (5.68)
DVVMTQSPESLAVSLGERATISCKSSQSELYESRTKNSVAWYQQKAGQPPKLLIYEASTRESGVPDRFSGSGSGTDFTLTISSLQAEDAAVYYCQQYHRLPLSFGGGTKVEIK	-0.41 0.05 -0.17	4/9 (4.41)
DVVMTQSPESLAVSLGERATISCKSSQSVLYESRNKHSVAWYQQKAGQPPKLLIYWAPTRESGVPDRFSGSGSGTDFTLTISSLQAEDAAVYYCKQYHRLPLSFGGGTKVEIK	4.03 n.d. 5.36	3/9 (3.63)
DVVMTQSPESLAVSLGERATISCRSVQSVLYESRNKNSVAWYQQKAGQPPKLLIYWASTRESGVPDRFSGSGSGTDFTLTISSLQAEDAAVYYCQQYWRLPLSFGGGTKVEIK	1.43 1.43 1.51	2/9 (5.31)
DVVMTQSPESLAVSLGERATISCKSSQSVLYESRNKNQVAWYQQKAGQPPKLLIYWAQTRESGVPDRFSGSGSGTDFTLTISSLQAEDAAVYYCQQYHRLPLSFGGGTKVEIK	2.97 2.81 2.35	1/9 (3.65)
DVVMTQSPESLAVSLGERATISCKSSQSVLYESRNKNSVAWYQQKAGQPPKLLIYWDSTRESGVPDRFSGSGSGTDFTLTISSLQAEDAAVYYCQDKHRLPLSFGGGTKVEIK	1.94 1.68 1.85	1/9 (4.66)
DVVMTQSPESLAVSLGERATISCKSHQSVLYESRNKNSTAWYQQKAGQPPKLLIYWASTRECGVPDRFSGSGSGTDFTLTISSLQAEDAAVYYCQQYHRLPLSFGGGTKVEIK	n.d. n.d. n.d.	0/9
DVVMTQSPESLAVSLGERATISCKSSQSVLYESRNKYEVAWYQQKAGQPPKLLIYWASTEESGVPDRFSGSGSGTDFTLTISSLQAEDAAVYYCQQYHRLPLSFGGGTKVEIK	n.d. n.d. n.d.	1/9 (2.67)
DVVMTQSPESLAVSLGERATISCKSSQSVLYESRNHSSVAWYQQKAGQPPKLLIYWASTRESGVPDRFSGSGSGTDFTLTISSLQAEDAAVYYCQQYHRLPLVFGGGTKVEIK	1.90 1.91 1.91	0/9
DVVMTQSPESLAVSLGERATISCKSSQSVLYESRNKNSVAWYQQKAGQPPKLLIYWAIDRESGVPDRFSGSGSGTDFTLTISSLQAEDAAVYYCQQDHRLPLSFGGGTKVEIK	n.d. n.d. n.d.	0/9
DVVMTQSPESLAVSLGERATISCKSSQSVLYESRNKNSVAWYQQKAGQPPKLLIYTASTRESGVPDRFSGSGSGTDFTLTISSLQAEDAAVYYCEQYHRFPLSFGGGTKVEIK	0.79 2.79 1.57	1/9 (1.52)
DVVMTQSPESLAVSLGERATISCKSSQSVSYESRNKKSVAWYQQKAGQPPKLLIYWASTRESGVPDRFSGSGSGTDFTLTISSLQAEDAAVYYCQQYHRLPLSFGGGTKVEIK	2.83 2.60 3.02	1/9 (2.80)
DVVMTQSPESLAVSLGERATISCNSSQSVLYESRNKNFVAWYQQKAGQPPKLLIYWASTRESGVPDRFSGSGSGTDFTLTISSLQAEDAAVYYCNQYHRLPLSFGGGTKVEIK	n.d. n.d. n.d.	1/9 (3.61)
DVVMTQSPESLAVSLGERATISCKSSQSCLYESRNKNSVAWYQQKAGQPPKLLIYWASFREFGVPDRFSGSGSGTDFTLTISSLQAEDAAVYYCQQYHRLPLSFGGGTKVEIK	1.87 2.08 1.83	1/9 (4.13)
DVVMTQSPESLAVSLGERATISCKRSQSVTYESRNKNSVAWYQQKAGQPPKLLIYWASTQESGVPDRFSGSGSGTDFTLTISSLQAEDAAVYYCQQYHRLPLSFGGGTKVEIK	n.d. n.d. 4.55	2/9 (4.07)
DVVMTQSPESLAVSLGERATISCKSSQSVMYESRIKNSVAWYQQKAGQPPKLLIYWASTKESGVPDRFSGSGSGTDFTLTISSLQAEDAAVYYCQQYHRLPLSFGGGTKVEIK	2.03 2.04 2.36	1/9 (3.46)
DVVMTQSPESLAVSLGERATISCKSSQPVLYESRNKNSVAWYQQKAGQPPKLLIYWAFTRESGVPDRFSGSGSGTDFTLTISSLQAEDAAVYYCQQYHRLPLSFGGGTKVEIK	4.61 4.15 n.d.	2/9 (4.03)

Top 4 of the variants detected in all replicates, tightest first:

VL	log10 Kd (nM) by replicate	control signals
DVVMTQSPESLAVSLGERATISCKSSQSELYESRTKNSVAWYQQKAGQPPKLLIYEASTRESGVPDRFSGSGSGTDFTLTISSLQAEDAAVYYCQQYHRLPLSFGGGTKVEIK	-0.41 0.05 -0.17	4/9 (4.41)
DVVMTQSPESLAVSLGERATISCRSVQSVLYESRNKNSVAWYQQKAGQPPKLLIYWASTRESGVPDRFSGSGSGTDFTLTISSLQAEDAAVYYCQQYWRLPLSFGGGTKVEIK	1.43 1.43 1.51	2/9 (5.31)
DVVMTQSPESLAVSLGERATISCKSSQSVLYESRNKQSVAWYQQKAGQPPKLLIYWASYRESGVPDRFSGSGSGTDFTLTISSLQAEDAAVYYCQQYHRLPLSFGGGTKVEIK	1.62 1.50 1.83	0/9
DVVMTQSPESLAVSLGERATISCKSSQSVLYESRNKNSVAWYQQKAGQPPKLLIYTASTRESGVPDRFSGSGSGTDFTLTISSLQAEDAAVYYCEQYHRFPLSFGGGTKVEIK	0.79 2.79 1.57	1/9 (1.52)

Empty control strains, which show no peptide, gave a signal in 18% of pairings with library AAYL50; the median was 4.19 and 95% of these signals were weaker than 2.99. No background was subtracted. The control count says in how many pairings with the empty strains this scFv gave a signal, with their mean in brackets.

Reference: Engelhart et al. 2022, doi:10.1038/s41597-022-01779-4. File: FLAb, binding data.